Screening results deposited in PubChem BioAssay by National Center for Advancing Translational Sciences (NCATS).
Compounds with a hit are over-represented: about 16% of the library has one in this group of screens.
miR-21 reporter – raises the signal of a miR-21 reporter | AID 2288 | 340,000 tested, under 10 active | Potency, µM (series often up to 38.3 µM), without a hit: at the highest dose reporter change, positive = more light | HeLa miR-21 FLuc reporter, luciferase, 48 h; active = well fitted rising curve with a large enough effect; inconclusive = small, poorly fitted or top-dose-only effect; inactive = no such curve, though single readings can be large or run the other way;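 further: % of control where 0% means no effect; miR-21 action dims this reporter so a rising signal means less miR-21 action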
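HeLa cells endogenously expressing miR-21, stably carrying CMV-driven firefly luciferase with a downstream miR-21 binding site, 2000 cells/well. Titrations up to approximately 40 uM, 48 hours; luciferase luminescence read.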
TDP1 cell noCPT – qHTS for Inhibitors of human tyrosyl-DNA phosphodiesterase 1 (TDP1): qHTS in cells in absence of CPT. hit rate 15% among 420,000. Potency, µM (series often up to 46.2 µM), without a hit: at the top dose activity change, negative = growth inhibition, usual class: inhibitors. DT40 Tdp1-/- hTDP1 cells, no CPT, ATP luminescence, 48 h; note: potency is the fitted concentration of half-maximal effect; % is set by controls: 0 for no effect and ±100 for the full control effect; nearly all actives have a fitted effect of over 55% in size
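Growth of hTDP1-complemented DT40 Tdp1-knockout cells is measured by ATP luminescence after at least 48 hr compound exposure at 37 °C, with DMSO substituting for the 20 nM CPT used in the parallel screen.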
TDP1 cell CPT – DT40-hTDP1 cell growth loss with CPT | hit rate 12% among 420,000 | chicken DT40 Tdp1-/-;hTDP1 cells + 20 nM CPT, ATP luminescence, 48 h | AID 686979 | Potency, µM (top dose mostly 46.2 µM), for the others: top-dose activity change, negative = growth inhibition, most hits filed as inhibitors; note: potency is the fitted concentration of half-maximal effect; % is set by controls: 0 for no effect and ±100 for the full control effect; nearly all actives have a fitted effect of over 55% in size
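Chicken DT40 Tdp1-/- cells stably complemented with human TDP1 were seeded at 400 cells/well in medium containing 20 nM camptothecin, exposed to pin-transferred compounds, and grown at 37 °C for at least 48 hr. Viability was read as ATP luminescence.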
TDP1 block – blocks human tyrosyl-DNA phosphodiesterase 1; Q9NUW8; recombinant TDP1, AlphaScreen DNA substrate cleavage; Potency, µM (titrated, usually from 130 µM), for inactives: at the highest dose activity change, negative = inhibition, usual class: inhibitors; hit rate 0.28% among 350,000; AID 485290; note: potency is the fitted concentration of half-maximal effect; % is set by controls: 0 for no effect and ±100 for the full control effect; nearly all actives have a fitted effect of over 40% in size
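E. coli-derived human Tdp1, 1 nM final. Cpd preinc 15 min RT; substrate 15 nM final, 5 min RT; AS bead mix 10 ug/ml final, 10 min RT. Signal loss = tyrosine-FITC cleavage. No-enzyme wells = max signal.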
uPA generation – cell surface uPA generation inhibition; hit rate 0.31% among 330,000; cell surface uPA generation assay, qHTS; Potency, µM (top dose mostly 38.3 µM), for the others: top-dose activity change, negative = inhibition, actives largely listed as inhibitors; active = well fitted inhibition curve with a large enough effect; inconclusive = small, poorly fitted or top-dose-only effect; inactive = no such curve, though single readings can be large or run the other way; tested in mouse RAW 264.7 cells; note: potency is the fitted concentration of half-maximal effect; % is set by controls: 0 for no effect and ±100 for the full control effect; nearly all actives have a fitted effect of over 55% in size
Numbers without * were called inactive; ? = inconclusive; . = no result. Unless noted, calls come from the whole dose curve; as a rule, active = well fitted curve in the direction sought with a large enough effect; inconclusive = small, poorly fitted or top-dose-only effect, or another doubt; inactive = no such curve, though single readings can be large; an effect the other way counts as inactive or inconclusive.

entry | Molecule | miR-21 reporter | TDP1 cell noCPT | TDP1 cell CPT | TDP1 block | uPA generation
1 | CC1(C(=O)Nc2ccccc2F)CCN1C(=O)Cc1cc(F)ccc1F (configuration not stated) | . | ? | -0.7% | . | .
2 | CC1(C(=O)Nc2cnc3ccccc3c2)CCN1C(=O)CC(c1ccccc1)c1ccccc1 (configuration not stated) | . | 16.4µM* | ? | . | .
3 | CC1(C(=O)Nc2ccccc2)CCN1C(=O)Cc1ccc(-c2ccccc2)cc1 (configuration not stated) | . | 18.4µM* | 23.1µM* | . | .
4 | CC1(C(=O)Nc2ccc(Cl)c(Cl)c2)CCN1C(=O)CC(c1ccccc1)c1ccccc1 (configuration not stated) | . | 23.1µM* | 18.4µM* | . | .
5 | CC1(C(=O)Nc2ccccc2F)CCN1C(=O)Cc1ccc(-c2ccccc2)cc1 (configuration not stated) | . | 14.6µM* | ? | . | .
6 | Cn1cnnc1SCC(=O)Nc1ccc(S(=O)(=O)N2CCOCC2)cc1 | . | 6.2% | 18.7% | 0.7% | -4.1%
7 | CSCC[C@H](NC(=O)OC(C)(C)C)C(=O)N1CCC(C(=O)N[C@@H](C)C(=O)NCc2ccc(F)cc2)CC1 | -0.4% | -11.8% | -25.5% | . | -2.6%
8 | CCN(CC)CCCNC(=O)CCc1c(C)n(CC)c2cc(-c3ccccc3OC)nn2c1=O | -1.8% | 20.2% | -12.0% | 2.3% | 1.2%
9 | COc1cccc(C2C(C(=O)c3cc4ccccc4o3)=C(O)C(=O)N2c2cc(C)on2)c1OC (configuration not stated) | -11.2% | ? | ? | -4.0% | 6.3%
10 | CCCC(C)(C)C(=O)N1CCC1(C)C(=O)Nc1cccc2ccccc12 (configuration not stated) | . | 10.3µM* | 20.6µM* | . | .
11 | COc1cccc(NC(=O)C2(C)CCN2C(=O)Cc2ccc(-c3ccccc3)cc2)c1 (configuration not stated) | . | 14.6µM* | ? | . | .
12 | Cc1ccc(S(=O)(=O)NC(=O)C2(C)CCN2C(=O)Cc2ccc(-c3ccccc3)cc2)nc1 (configuration not stated) | . | 2.7% | 4.9% | . | .
13 | Cc1ccc(CNC(=O)C2(C)CCN2C(=O)Cc2ccc(-c3ccccc3)cc2)cc1 (configuration not stated) | . | 23.1µM* | ? | . | .
14 | COc1ccc(CCN2C(=O)c3cccc4cccc(c34)C2=O)cc1OC | -3.5% | ? | -21.5% | -2.0% | -0.2%
15 | CCN(CC)C(=O)c1ccc2c3c(cccc13)C(=O)N(CCc1ccc(OC)c(OC)c1)C2=O | ? | 8.2µM* | 8.2µM* | 5.6% | -3.4%
16 | Cc1cccc(-c2n[nH]c(=S)n2/N=C/c2cccs2)c1 | -5.7% | -27.4% | 4.0% | 6.8% | 3.6%
17 | CCOC(=O)c1c(SCCN2CCCCC2)n(-c2ccccc2)c(=S)n(-c2ccccc2)c1=O | . | 4.11µM* | 2.91µM* | . | 5.9%
18 | CCn1c(CNC(=O)c2cccs2)n[nH]c1=S | 0.2% | 10.4% | 15.0% | -7.9% | -0.4%
19 | Cc1c(N)cc[n+](CC(=O)c2ccccc2)c1C | -4.3% | 20.6µM* | 20.6µM* | 0.0% | -0.7%
20 | Cc1cc[n+](CC(=O)c2ccccc2)c2ccccc12 | 5.6% | -10.2% | 11.7% | 4.8% | -3.1%
21 | Cc1c(CCO)sc[n+]1CC(=O)c1ccccc1 | . | ? | 0.562µM* | . | .
22 | Cc1c(CCOC(=O)C23CC4(C)CC(C)(CC(C)(C4)C2)C3)sc[n+]1CC(=O)c1ccccc1 | 2.5% | ? | ? | 5.1% | -2.1%
23 | Cc1c(CCOC(=O)CC23CC4CC(CC(C4)C2)C3)sc[n+]1CC(=O)c1ccccc1 | 20.9% | 14.6µM* | 20.6µM* | 2.6% | ?
24 | Cc1cc(Br)cc2c(C(=O)OCC(=O)c3ccccc3)cc(-c3ccccc3)nc12 | -11.5% | 8.9% | -6.3% | . | .

An excerpt from above, reduced to uPA generation, TDP1 cell CPT and miR-21 reporter:
entry	compound	uPA generation	TDP1 cell CPT	miR-21 reporter
19	Cc1c(N)cc[n+](CC(=O)c2ccccc2)c1C	-0.7%	20.6µM*	-4.3%
20	Cc1cc[n+](CC(=O)c2ccccc2)c2ccccc12	-3.1%	11.7%	5.6%
21	Cc1c(CCO)sc[n+]1CC(=O)c1ccccc1	.	0.562µM*	.
22	Cc1c(CCOC(=O)C23CC4(C)CC(C)(CC(C)(C4)C2)C3)sc[n+]1CC(=O)c1ccccc1	-2.1%	?	2.5%
23	Cc1c(CCOC(=O)CC23CC4CC(CC(C4)C2)C3)sc[n+]1CC(=O)c1ccccc1	?	20.6µM*	20.9%

Remaining list, next part:
entry | Molecule | miR-21 reporter | TDP1 cell noCPT | TDP1 cell CPT | TDP1 block | uPA generation
25 | CC(C)(C)c1nnc(NC(=O)Nc2ccc(Cl)cc2)s1 | -38.7% | 16.4µM* | ? | 2.5% | -0.4%
26 | O=C(Nc1ccc(Cl)cc1)Nc1nnc(CSCc2ccccc2Cl)s1 | 4.6% | 11.6µM* | 16.4µM* | 0.0% | 0.7%
27 | COc1ccc(NC(=O)Nc2nnc(C(C)(C)C)s2)cc1 | -40.4% | ? | -26.2% | -1.2% | 23.5%
28 | O=C(Nc1ccccc1)Nc1nnc(CSCc2ccccc2Cl)s1 | -5.6% | ? | 20.6µM* | 3.2% | 8.3%
29 | O=C(Nc1ccc(Cl)c(Cl)c1)Nc1nnc(CSc2ccccc2)s1 | -3.8% | 5.17µM* | 2.59µM* | 0.0% | -2.7%
30 | O=C(Cc1nnc(NC(=O)Nc2ccccc2)s1)Nc1ccccc1 | 1.3% | -0.8% | -1.2% | 0.6% | 7.6%
31 | CC(OC(=O)/C=C/c1cccs1)C(=O)NC1CCCCC1C (configuration not stated) | 1.6% | 18.0% | -3.0% | 1.2% | 1.9%
32 | NC(CO)(CO)COCc1ccccc1 | 0.3% | 1.8% | -2.5% | 0.0% | -4.1%

Values in list order from the entries so far:
Compounds 28–32 in miR-21 reporter, in turn: -5.6%, -3.8%, 1.3%, 1.6%, 0.3%

Additional entries follow.
entry | Molecule | miR-21 reporter | TDP1 cell noCPT | TDP1 cell CPT | TDP1 block | uPA generation
33 | Cc1ccc(-c2onc3ccc(C=O)cc23)cc1 | -38.1% | 18.4µM* | 16.4µM* | 7.0% | -2.4%
34 | O=C(O)/C=C/c1ccc2noc(-c3ccccc3)c2c1 | -1.7% | ? | 14.6µM* | 3.7% | 22.3%
35 | Cc1ccc(-c2onc3ccc(C4(C)OCCO4)cc23)cc1 | -2.8% | ? | 4.8% | 1.0% | 7.2%
36 | CC1=C(C(=O)OC2CCCC2)C(c2ccc(C)o2)C2=C(CC(c3cccs3)CC2=O)N1 (configuration not stated) | 0.3% | 16.4µM* | ? | 4.5% | .
37 | COC(=O)C1=C(C)NC2=C(C(=O)CCC2)C1c1coc2ccccc2c1=O (configuration not stated) | 1.3% | -23.4% | 1.0% | 4.8% | -8.4%
38 | CCOC(=O)C1=C(C)NC2=C(C(=O)CC(c3cccs3)C2)C1c1cccs1 (configuration not stated) | ? | ? | ? | 2.4% | -13.5%
39 | CC1=C(C(=O)OC2CCCC2)C(c2coc3ccccc3c2=O)C2=C(CCCC2=O)N1 (configuration not stated) | 2.7% | 0.411µM* | -18.7% | 2.7% | 1.7%
40 | CC1=C(C(=O)OC2CCCCC2)C(c2ccc(C)o2)C2=C(CC(C)(C)CC2=O)N1 (configuration not stated) | -3.1% | ? | 18.4µM* | 3.3% | -13.2%
41 | O=C(CNC(=O)c1ccccc1O)N/N=C/c1ccccn1 | -19.4% | -14.9% | -5.8% | 3.5% | 3.2%
42 | COc1ccc(-c2coc3ccc(OC4OC(COC(C)=O)C(OC(C)=O)C(OC(C)=O)C4OC(C)=O)cc3c2=O)cc1 (configuration not stated) | . | 1.06µM* | 2.66µM* | 7.1% | .
43 | COc1ccc(-c2coc3cc(O[C@@H]4O[C@H](CO)[C@@H](O)[C@H](O)[C@H]4O)ccc3c2=O)cc1 | . | -17.4% | -3.5% | -4.7% | ?
